Measured values published in patent publication US10874669B2 (WAYNE STATE UNIVERSITY, priority 2018, dated 2020).

By UniProt entry, the sequences of proteins in these tests, tags left out. Where a name states a change or a piece, a line headed by the entry shows the natural chain unless it says otherwise.
UniProt P61169, whole entry: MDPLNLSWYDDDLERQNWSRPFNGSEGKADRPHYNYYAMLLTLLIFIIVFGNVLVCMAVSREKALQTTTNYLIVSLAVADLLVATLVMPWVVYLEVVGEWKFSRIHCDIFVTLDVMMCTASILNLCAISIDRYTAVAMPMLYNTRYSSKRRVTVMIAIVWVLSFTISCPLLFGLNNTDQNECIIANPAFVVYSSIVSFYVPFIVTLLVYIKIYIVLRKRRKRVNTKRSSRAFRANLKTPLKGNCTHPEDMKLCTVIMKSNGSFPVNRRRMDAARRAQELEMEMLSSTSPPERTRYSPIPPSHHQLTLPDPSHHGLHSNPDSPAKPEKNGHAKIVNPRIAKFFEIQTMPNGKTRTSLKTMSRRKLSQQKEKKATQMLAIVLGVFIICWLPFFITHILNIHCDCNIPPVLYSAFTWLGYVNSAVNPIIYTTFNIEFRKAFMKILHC

Target: cloned D2L receptors (Rattus norvegicus (Rat), UniProt P61169)
Experiment: [3H]spiperone displacement, cloned D2L receptors in HEK cells
Format: binding
Details: means±SEM for 3 experiments
From the text: The following table provides inhibition constants for displacing [3H]spiperone binding to the cloned D2L and D3 receptors expressed in HEK cells. […] NR=Not repeated.

Ki: 499 ± 16 nM
Structure (SMILES): CCCN(CCCC1(O)C=CC(O)=CC1)C1CCc2nc(N)sc2C1 (stereo not shown) [Compound 54, 4-(3-((2-Amino-4,5,6,7-tetrahydrobenzo[d]thiazol-6-yl)(propyl)amino)propyl)-benzene-1,4-diol]
